From patent US20250115636A1, “PEPTIDOMIMETIC INHIBITORS OF PROTEIN N-TERMINAL […] 1, COMPOSITION, AND METHOD OF USE” (Purdue Research Foundation, priority 2022, published 2025)
pIC50: −log10 of the molar value.

The chains behind the UniProt entries cited, without tags or fusion partners.
UniProt Q9BV86, whole entry: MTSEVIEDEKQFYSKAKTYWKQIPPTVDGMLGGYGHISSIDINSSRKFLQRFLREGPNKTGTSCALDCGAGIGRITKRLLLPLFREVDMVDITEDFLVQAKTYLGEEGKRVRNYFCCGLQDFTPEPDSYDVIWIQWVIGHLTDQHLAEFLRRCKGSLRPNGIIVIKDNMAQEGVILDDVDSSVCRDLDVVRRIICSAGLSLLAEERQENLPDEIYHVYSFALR

What was measured:
NTMT1 [1] = target: T1, NTMT1 (Homo sapiens, UniProt Q9BV86); conditions: previously reported inhibitors; cited from earlier work
me3-RCC1 = conditions: at 1 mM in HCT116 cells, previously reported; cited from earlier work
NTMT1 [2] = target: T1, NTMT1; assay: NTMT1 biochemical assay (SAHH-coupled fluorescence assay); conditions: ratio of NTMT1 IC50 to that of DC541
[3] = Parallel Artificial Membrane Permeability Assay (PAMPA)

SMILES	pIC50 (NTMT1 [1])	Decrease of the cellular me3-RCC1 level (me3-RCC1) [%]	IC50/IC50 (DC541) (NTMT1 [2])	Improvement in cell permeability compared to 1d [3]
N=C(N)NCCC[C@H](NC(=O)[C@H](CCCCN)NC(=O)[C@@H]1CCCN1C(=O)Cc1cccc2ccccc12)C(N)=O	7.00	50		
CN(CCc1ccccc1)C(=O)[C@H](CCCCN)NC(=O)[C@@H]1CCCN1C(=O)Cc1cccc2ccccc12			5.0	about 2 fold
